# Bioassay records: PubChem, National Center for Advancing Translational Sciences (NCATS)
# gsp ag = agonists of gsp mutant (McCune-Albright syndrome) | gsp mutant cells, cAMP HTRF, 30 min | Potency, µM (top dose mostly 76.9 µM), hits mostly activators | hit rate 0.13% among 340,000 | AID 624287; active means well fitted activation curve with a large enough effect; inconclusive means small, poorly fitted or top-dose-only effect, or another doubt; inactive means no such curve, though single readings can be large or run the other way; cell line not stated here;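 further: phosphodiesterase inhibitor Ro 20-1724 added with compounds to block cAMP breakdown; nearly all actives have a fitted effect of over 60% in size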
#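 Cells stably selected in G418 were plated at 2000/well, grown 16-24 hr, then given compounds in DMSO with the PDE inhibitor […] (300 uM solution added) for 30 min at 37C; cAMP was read by HTRF.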
# Rango dissoc inh = inhibition of RanGTP-driven Rango-importin beta dissociation. O95149+P62826. hit rate 0.071% among 340,000. Biochemical FRET Rango-importin beta, RanGTP-induced dissociation. Potency, µM (doses to about 46.1 µM); further: nearly all actives have a fitted effect of over 45% in size
#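 Rango/importin beta premix (0.1/0.25 uM final), PBS + 1 mM DTT + 0.02% Tween-20 + 0.1% BSA; cpd 5 min RT; FRET pre-read; + RanGTP-RCC1 (0.6 uM Ran, 2 mM GTP, 0.2 uM RCC1); 45 min RT; FRET post-read, ex 430, em 486/530 nm.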
# Rango-impB inh = prevents formation of the Rango-importin beta complex; Rango CFP/YFP FRET sensor + importin beta, 45 min; AID 540263; hit rate 0.031% among 340,000; Potency, µM (doses to about 92.2 µM); further: nearly all actives have a fitted effect of over 15% in size
#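 FRET biosensor Rango (snurportin 1 IBB between N-terminal EYFP and C-terminal Cerulean), 50 nM in PBS/1 mM DTT/0.02% Tween-20/0.1% BSA, preincubated 5 min RT with compound; 0.125 microM importin beta added, 45 min RT, CFP/YFP FRET ratio read.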
# gsp antagonist = antagonists of gsp mutant (McCune-Albright syndrome); gsp-mutant cells, cAMP HTRF, 30 min; Potency, µM (top dose mostly 76.9 µM), usual class: inhibitors; hit rate 0.4% among 340,000; calls by dose curve; cell line not stated here;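 further: intracellular cAMP measured with PDE inhibitor Ro 20-1724 present during compound exposure; nearly all actives have a fitted effect of over 65% in size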
#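 Measurement of cellular cAMP by homogeneous time-resolved fluorescence following a 30 min compound exposure at 37C. The PDE inhibitor […] was present throughout; the assay buffer was DPBS with 0.05% BSA and 0.005% Tween 20.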
# A number is an active result; n = inactive; u = inconclusive; x = not tested or not shown; [ ] = dose if it differs, or a comment. Hits are enriched below; roughly 0.66% of the tested compounds scored in any of these assays. Unless noted, the call rests on the fitted dose curve.
SMILES,gsp ag,Rango dissoc inh,Rango-impB inh,gsp antagonist
Fc1cccc(NCCc2c[nH]c3ccccc23)n1,n,n,n,n
COC(=O)c1cccc(Oc2nc3c(c(=O)n(C)c(=O)n3C)n2Cc2ccc(C)cc2)c1,7.9µM,n,n,n
Cc1ccccc1OCCC(=O)Nc1ccc(S(=O)(=O)N2CCCC2)cc1,n,x,x,x
Cn1c(=O)n(C)c2cc([N+](=O)[O-])c(N3CCN(S(=O)(=O)c4ccccc4)CC3)cc21,n,n,n,25µM
Cn1c(=O)n(C)c2cc([N+](=O)[O-])c(N3CCN(S(C)(=O)=O)CC3)cc21,n,n,n,n
CN(CCCNC(=O)CSc1cc(=O)n(C)c2cc(Cl)ccc12)Cc1ccccc1,18µM,n,n,n
CCOC(=O)CSc1cc(=O)n(C)c2cc(Cl)ccc12,16µM,n,n,n
Cc1ccc(N2CC(C(=O)Nc3cccc(S(=O)(=O)N4CCOCC4)c3)CC2=O)cc1 (stereo not drawn),n,x,x,x
CCOc1ccc(C(=O)Nc2ccc(C(F)(F)F)n(C)c2=O)cc1,28µM,n,n,n
COc1ccc2c(c1)CC=C1C2CCC2(C)C(=O)C(=NO)CC12 (stereo not drawn),n[15.4 µM],n,n,n
CCC1OC2(C)OC(=N)C1(C#N)C(C#N)(C#N)C2c1ccccc1 (stereo not drawn),u,8.2µM,u,n
COc1cc(/C=C2\C(=N)N3N=C(S(C)(=O)=O)SC3=NC2=O)ccc1OC(=O)c1ccco1,n,5.8µM,u,n
CCOc1cc(/C=C2\C(=N)N3N=C(S(=O)(=O)CC)SC3=NC2=O)ccc1OC(=O)c1ccco1,n,u,n,n
COC1OCC(O)C(NC(=O)N(C)N=O)C1O (stereo not drawn),n,x,x,x
Cc1ccc(C(=O)NC(=S)Nc2ccc(-c3cc4ccccc4oc3=O)cc2)c(C)c1,20µM,n,n,n
CCCCN1CC(C)(C)[C@H](CC(=O)NC)C1=O,n,x,x,x
Cc1cc(C)c(S(=O)(=O)N(C)CC(=O)N2CCCC2)c(C)c1,n,x,x,x
NC(=S)c1cc2ccc(O)cc2oc1=O,2.5µM,u,u,n
CC1=Nc2ccccc2/C1=C/c1c(N)n2c(S(=O)(=O)C(C)C)nsc2nc1=O,n[15.4 µM],u,u,u
CC1=Nc2ccc(C)cc2/C1=C/c1c(N)n2c(S(=O)(=O)C(C)C)nsc2nc1=O,n,u,u,40µM
C[C@@H]1CN([C@H](C)CO)C(=O)CCCn2nncc2CO[C@H]1CN(C)Cc1ccccc1,n,x,x,x
COc1cc(NC(=O)c2cccs2)c(OC)cc1NC(=O)c1cccs1,n,18µM,u,n
CC(=O)c1cc2c(C)c(C(=O)c3ccccc3)oc2cc1O,n,u,6.5µM,n
Cc1oc2ccc(O)cc2c1C(=O)c1ccccc1,n,n,n,n
O=C(OCN1C(=O)c2ccccc2C1=O)c1cc(S(=O)(=O)N2CCOCC2)ccc1F,3.2µM,n,u,n
SMILES,gsp ag,Rango dissoc inh,Rango-impB inh,gsp antagonist
O=C(OCCN1C(=O)c2ccccc2C1=O)c1cc(S(=O)(=O)N2CCOCC2)ccc1Cl,n,n,n,n
Cc1cc(N2C(=O)C(O)=C(C(=O)c3cc4ccccc4o3)C2c2cccc(Br)c2)no1 (stereo not drawn),6.3µM,u,u,n
COc1cccc2cc(C(=O)C3=C(O)C(=O)N(c4cc(C)on4)C3c3cccs3)oc12 (stereo not drawn),7.9µM,u,u,n
COc1ccc([C@H]2C[C@@H](O)[C@H](n3cc(-c4ccc(F)cc4)nn3)CN2C(=O)C2CCCCC2)cc1,n,x,x,x
COC(=O)C[C@H]1C[C@H]2c3cc(NC(=O)NC4CCCC4)ccc3O[C@H]2[C@@H](CO)O1,n,x,x,x
O=c1[nH]c(=O)n(Cc2ccccc2)c2c1C(C(F)(F)F)(C(F)(F)F)N=C(c1ccco1)N2,n,n,n,35µM
CCN(CC)S(=O)(=O)c1cccc(C(=O)Nc2cc(C)on2)c1,n,n,n,50µM
COCCCN(C(=O)CSCC(=O)Nc1ccc(C)cc1)c1c(N)n(Cc2ccccc2)c(=O)[nH]c1=O,n,n,n,n
C[C@H]1CN([C@@H](C)CO)C(=O)c2cc(Br)cnc2O[C@H]1CN(C)S(=O)(=O)c1ccccc1F,n,x,x,x
Clc1ccc(-c2nc(-c3cc4cc(Cl)ccc4o3)cs2)cc1,n,n,n,28µM
O=C(O)c1cc(-c2ccccc2)nc(-c2ccccc2)c1,n,n,u,32µM
Cc1ccc(S(=O)(=O)NCCC(=O)Oc2ccc3ccc(=O)oc3c2)cc1,u,12µM,u,n
Cc1ccc(S(=O)(=O)NC(C(=O)Oc2ccc3ccc(=O)oc3c2)c2ccccc2)cc1 (stereo not drawn),u,u,u,n
Cc1ccc(CSc2nnc(-c3ccc4c(c3)OCO4)o2)cc1,n,n,n,n
COc1ccc(C2=NCC(CSc3nnc(-c4ccc5c(c4)OCO5)o3)S2)cc1 (stereo not drawn),u,n,n,28µM
CC(=O)c1ccc(S(=O)(=O)N2CCN(c3ccnc4cc(Cl)ccc34)CC2)cc1,n,x,x,x
Cc1ccc(NC(=O)CSc2nnc(Cc3cccn3C)n2-c2ccc(F)cc2)c(C)c1,n,n,n,50µM
O=C1C(=O)N(CCN2CCOCC2)C(c2cccc(Cl)c2)/C1=C(\O)c1ccc2c(c1)OCCO2 (stereo not drawn),u,n,n,n
COC(=O)c1ccc(C2/C(=C(\O)c3ccc4c(c3)OCCO4)C(=O)C(=O)N2c2nnc(C)s2)cc1 (stereo not drawn),u,n,n,n
Cc1nnc(N2C(=O)C(=O)/C(=C(/O)c3ccc4c(c3)OCCO4)C2c2cccc([N+](=O)[O-])c2)s1 (stereo not drawn),n,x,x,x
Cc1nnc(N2C(=O)C(=O)/C(=C(/O)c3ccc4c(c3)CC(C)O4)C2c2ccccc2F)s1 (stereo not drawn),20µM,u,u,n
CCCCOc1cccc(C2/C(=C(\O)c3ccc4c(c3)OCCO4)C(=O)C(=O)N2CCN2CCOCC2)c1 (stereo not drawn),16µM,n,n,n
COc1cccc(C2/C(=C(\O)c3ccc4c(c3)OCCO4)C(=O)C(=O)N2c2nnc(C)s2)c1 (stereo not drawn),8.9µM,u,u,n
CCOC(=O)C1=C(N)Oc2ccc3ccccc3c2C1c1cccnc1 (stereo not drawn),n,n,n,32µM
CC(C)c1ccc(NC(=O)c2csnn2)cc1,n,n,n,n
SMILES,gsp ag,Rango dissoc inh,Rango-impB inh,gsp antagonist
CC(C)c1ccc(NC(=O)c2snc3ccc(Cl)cc23)cc1,n,n,n,28µM
Cc1cc(N2CCCC2=O)cc(C)c1S(=O)(=O)NCCOc1ccc(C(C)(C)C)cc1,n,n,n,25µM
Cc1cc(C)c(OCC(=O)OCC(=O)NCc2ccco2)c(C)c1,n,x,x,x
CCCCCC1CC1C(=O)N/N=C/c1ccc(N(C)C)cc1 (stereo not drawn),n,8.2µM,u,n
CC(=O)N1CCN(c2cc(-c3ccccc3)nc3cc(-c4cccc(Cl)c4)nn23)CC1,n,x,x,x
O=C(c1cc(Cl)cc(Cl)c1)N1CCC2CC1c1cc(N3CCCCC3)ccc12 (stereo not drawn),n,x,x,x
